Assay results as given in PMC6254723, “Synthesis and Pharmacological Screening of Several Aroyl and Heteroaroyl Selenylacetic Acid Derivatives as Cytotoxic and Antiproliferative Agents” (Molecules, 2009).
pIC50: −log10 of the molar value.

Test system: PC-3 cell line
Test: MTT cytotoxicity assay in PC-3
Conditions: read-out: IC50 (cytotoxic activity in PC-3 cell line); as repeated in Table 5; NE = no effect
Description: The results are tabulated as IC50 values. All experiments were independently performed at least three times and the values were calculated after 72 hours exposure (drug concentrations of 2, 5, 7 and 10 μM).
PC-3 cells were seeded in 96-well plates (Millipore, Eschborn, Germany) at a density of 5 × 10^3 cells per well. The samples were incubated at 37 °C under 5% CO2 overnight prior to the addition of the compounds. Compounds were diluted in complete medium. After 3 days of incubation, 10 μL MTT solution (5 mg/mL in PBS) was added to the cells in each well and these were stored for an additional 4 h at 37 °C. […] The percentage of viable cells was calculated to obtain IC50-values.
PC-3 are human tumorigenic and metastatic prostate cancer cells and these were obtained from American Type Culture Collection (ATCC, Manassas, VA, USA) (passage 36).

(3-phenyl-propanonylselenyl)acetic acid [Compound 12]
pIC50: < 5.00
